Measurements as given in patent US6767887B1, “Exendin analogues, processes for their preparation and medicaments containing them” (Roche Diagnostics GmbH, priority 1999, dated 2004).

Amino acid sequences for entries named in this document (tags omitted). A change or cut given only in a name is not applied to a line headed by its entry.
UniProt P08473: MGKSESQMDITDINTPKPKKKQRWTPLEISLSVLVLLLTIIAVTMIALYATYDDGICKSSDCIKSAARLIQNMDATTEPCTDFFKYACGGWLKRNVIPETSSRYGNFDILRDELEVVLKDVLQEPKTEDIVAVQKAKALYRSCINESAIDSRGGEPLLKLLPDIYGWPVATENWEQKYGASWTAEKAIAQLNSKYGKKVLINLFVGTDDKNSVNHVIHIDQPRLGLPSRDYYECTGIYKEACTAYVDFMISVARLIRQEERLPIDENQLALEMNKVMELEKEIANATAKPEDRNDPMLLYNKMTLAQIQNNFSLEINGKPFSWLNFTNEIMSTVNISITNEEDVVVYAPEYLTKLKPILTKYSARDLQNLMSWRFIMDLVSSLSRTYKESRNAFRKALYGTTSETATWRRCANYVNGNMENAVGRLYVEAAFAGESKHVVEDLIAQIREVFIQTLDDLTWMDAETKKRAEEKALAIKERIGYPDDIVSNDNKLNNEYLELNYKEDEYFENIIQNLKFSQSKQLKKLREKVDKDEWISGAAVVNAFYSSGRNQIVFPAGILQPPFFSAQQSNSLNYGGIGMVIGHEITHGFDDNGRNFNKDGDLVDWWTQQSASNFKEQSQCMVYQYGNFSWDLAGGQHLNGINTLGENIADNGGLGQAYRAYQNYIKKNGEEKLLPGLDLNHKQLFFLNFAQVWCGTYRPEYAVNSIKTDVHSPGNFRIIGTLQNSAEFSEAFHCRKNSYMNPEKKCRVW
UniProt P27487, whole entry: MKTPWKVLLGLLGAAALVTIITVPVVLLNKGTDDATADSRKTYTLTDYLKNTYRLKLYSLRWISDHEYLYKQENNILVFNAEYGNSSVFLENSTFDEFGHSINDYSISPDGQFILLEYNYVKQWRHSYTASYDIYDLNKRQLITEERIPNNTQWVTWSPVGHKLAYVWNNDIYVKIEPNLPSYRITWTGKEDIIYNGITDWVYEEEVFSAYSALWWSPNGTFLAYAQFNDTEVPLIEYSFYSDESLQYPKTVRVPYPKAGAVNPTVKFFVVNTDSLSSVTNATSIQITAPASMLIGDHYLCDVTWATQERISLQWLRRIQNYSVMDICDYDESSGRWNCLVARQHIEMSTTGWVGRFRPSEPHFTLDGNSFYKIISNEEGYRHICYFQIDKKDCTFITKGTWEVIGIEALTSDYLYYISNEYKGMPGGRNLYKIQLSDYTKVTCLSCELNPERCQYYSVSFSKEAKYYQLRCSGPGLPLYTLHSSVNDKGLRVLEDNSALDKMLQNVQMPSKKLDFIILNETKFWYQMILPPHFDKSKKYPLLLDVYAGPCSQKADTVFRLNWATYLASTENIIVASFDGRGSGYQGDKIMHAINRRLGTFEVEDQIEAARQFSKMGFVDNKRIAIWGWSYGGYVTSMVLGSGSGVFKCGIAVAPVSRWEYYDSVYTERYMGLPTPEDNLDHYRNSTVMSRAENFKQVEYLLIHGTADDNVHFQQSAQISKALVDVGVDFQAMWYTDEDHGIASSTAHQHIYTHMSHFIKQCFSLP

Key:
[1] = target: T1, human neutral endopeptidase 24.11 (Homo sapiens, UniProt P08473); test: Degradation by human neutral endopeptidase 24.11 (HPLC); type: in vitro ADME; conditions: incubation with neutral endopeptidase 24.11, HEPES pH 7.4
T1 construct: purchased Genentech (San Francisco, USA)

[2] = target: dipeptidyl peptidase IV (DDP-IV) (Homo sapiens, UniProt P27487); conditions: at the time the incubation was ended
[3] = tested on: brush border microvilli membranes (BBM); conditions: HEPES pH 7.4

In the case of “GLP-1-(7-36)-NH2 [GLP1-(7-36)-NH2, reference compound]”, the Degradation rate [1] is reported as 0.0586 mM/100 ng/ml NEP24.11/min, the “Substrate for DDP-IV (proteolysis)” value [2] is reported as 50% proteolysis and the Degradation rate [3] is reported as 880.00 ng peptide/min/mg BBM.
